For one compound, CPE inhibition results are on record in PubChem BioAssay AID651640 (Broad Institute, 2012).

The entries are a selection whose mix differs from that of the whole data set. Records with an inconclusive call do not appear. Activity calls are given as the source filed them. No stated cut-off is given here; in the data, active means CPE inhibition above about 20% (passing the limit was not always enough); inconclusive means no clear call, values can overlap the other calls; tested in BHK-21 cells.

This assay is described as follows: inhibitors of DENV2 cytopathic effect, primary screen, cell-based, plate reader, single concentration (AID 651640).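 Further: 0% = median of neutral control wells and 100% = median of positive control wells.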 The conditions noted are these: DENV2-infected cells, cytopathic effect rescue, at 9.99 µM, active compounds read high. On the technique in general: Cytopathic effects are the visible damage that an infection or toxin causes in cultured cells.
On to `COc1ccccc1OP(=O)(Nc1ccc(C)cn1)Oc1ccccc1OC`, for which the CPE inhibition is inactive: 17.1%.
